# Reference: EP0730590B1, “ISOXAZOLINE AND ISOXAZOLE FIBRINOGEN RECEPTOR ANTAGONISTS” (Dupont Pharmaceuticals Company, priority 1993, dated 1995)
# The chains behind the UniProt entries cited, without tags or fusion partners. A line that says so, or that is headed by a name, gives the form on record, which may keep a tag or linker. Residues count along the entry.
# UniProt P05106, 27-788 limits assumed: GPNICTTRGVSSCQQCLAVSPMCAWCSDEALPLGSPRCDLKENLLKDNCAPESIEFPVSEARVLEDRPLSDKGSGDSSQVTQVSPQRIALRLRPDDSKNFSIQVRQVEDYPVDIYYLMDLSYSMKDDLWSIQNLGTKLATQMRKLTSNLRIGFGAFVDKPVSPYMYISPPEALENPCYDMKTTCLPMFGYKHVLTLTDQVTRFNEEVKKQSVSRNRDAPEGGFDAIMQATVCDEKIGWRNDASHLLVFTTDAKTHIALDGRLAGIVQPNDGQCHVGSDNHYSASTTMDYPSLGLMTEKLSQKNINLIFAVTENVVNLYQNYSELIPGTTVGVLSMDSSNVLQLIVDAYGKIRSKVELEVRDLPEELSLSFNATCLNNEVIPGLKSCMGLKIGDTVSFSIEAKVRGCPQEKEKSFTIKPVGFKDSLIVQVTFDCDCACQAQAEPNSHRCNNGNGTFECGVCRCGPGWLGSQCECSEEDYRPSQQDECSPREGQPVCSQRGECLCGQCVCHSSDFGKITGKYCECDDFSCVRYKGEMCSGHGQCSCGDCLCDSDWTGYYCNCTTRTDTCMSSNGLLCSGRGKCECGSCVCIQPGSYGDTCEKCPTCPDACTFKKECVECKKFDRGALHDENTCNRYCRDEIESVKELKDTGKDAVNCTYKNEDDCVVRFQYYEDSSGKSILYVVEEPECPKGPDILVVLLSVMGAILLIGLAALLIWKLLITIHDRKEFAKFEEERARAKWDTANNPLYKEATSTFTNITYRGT
# UniProt P08514, with tags, fused parts or gaps limits assumed: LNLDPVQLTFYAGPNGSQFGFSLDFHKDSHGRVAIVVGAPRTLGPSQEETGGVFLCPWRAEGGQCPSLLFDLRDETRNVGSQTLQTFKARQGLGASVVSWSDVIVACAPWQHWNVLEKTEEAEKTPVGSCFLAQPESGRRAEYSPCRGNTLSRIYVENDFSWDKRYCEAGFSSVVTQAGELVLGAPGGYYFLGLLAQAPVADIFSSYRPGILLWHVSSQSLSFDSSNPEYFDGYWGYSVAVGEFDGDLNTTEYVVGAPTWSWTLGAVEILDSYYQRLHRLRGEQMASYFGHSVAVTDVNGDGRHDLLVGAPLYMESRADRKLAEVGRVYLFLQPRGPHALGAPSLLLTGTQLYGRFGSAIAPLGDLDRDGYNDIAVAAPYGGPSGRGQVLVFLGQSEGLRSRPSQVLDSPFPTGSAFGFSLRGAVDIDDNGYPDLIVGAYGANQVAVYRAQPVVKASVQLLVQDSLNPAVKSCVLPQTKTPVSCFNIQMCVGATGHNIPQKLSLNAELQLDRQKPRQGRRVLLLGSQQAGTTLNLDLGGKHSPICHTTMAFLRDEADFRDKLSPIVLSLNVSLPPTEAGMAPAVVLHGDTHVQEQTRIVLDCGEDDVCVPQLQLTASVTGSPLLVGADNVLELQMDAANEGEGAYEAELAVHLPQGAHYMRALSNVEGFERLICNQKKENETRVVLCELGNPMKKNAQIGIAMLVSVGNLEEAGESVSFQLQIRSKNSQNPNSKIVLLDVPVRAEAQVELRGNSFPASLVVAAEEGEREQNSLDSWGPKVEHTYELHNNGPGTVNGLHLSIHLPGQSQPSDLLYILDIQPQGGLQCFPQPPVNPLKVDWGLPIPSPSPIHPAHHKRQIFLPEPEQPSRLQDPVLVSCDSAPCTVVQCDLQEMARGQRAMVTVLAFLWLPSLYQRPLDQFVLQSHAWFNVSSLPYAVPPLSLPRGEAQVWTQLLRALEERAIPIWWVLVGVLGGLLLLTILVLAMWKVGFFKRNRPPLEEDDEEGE
# Experiments:
# [1] = molecular target: agonist-induced platelet aggregation (Homo sapiens, UniProt P05106+P08514); test: Platelet Aggregation Assay in platelet-rich plasma (PRP); assay type: cell-based; conditions: read-out: Platelet Aggregation Assay IC50 (without esterase)
# [2] = molecular target: human platelet rich plasma (Homo sapiens, UniProt P05106+P08514); test: Platelet Aggregation Assay, ester prodrugs preincubated with porcine liver esterase; conditions: read-out: Platelet Aggregation Assay IC50 (with esterase), platelet rich plasma (PRP)
IC50 [2],SMILES,IC50 [1]
,N=C(N)c1ccc(C2=NOC(CC(=O)NCC(NC(=O)OCc3ccccc3Cl)C(=O)O)C2)cc1 (stereo not drawn),< 10 µM
< 10 µM,CCCC[C@H](CC(=O)OC)NC(=O)CC1CC(c2ccc(C(=N)N)cc2)=NO1 (stereo partly drawn),
< 10 µM,COC(=O)CC(NC(=O)CC1CC(c2ccc(C(=N)N)cc2)=NO1)C(=O)N1CCSC1 (stereo not drawn),
,"N=C(N)c1ccc(C2=NOC(CC(=O)NC(CCc3cccnc3)CC(=O)O)C2)cc1 (single isomer, unassigned)",< 10 µM
< 10 µM,COC(=O)C(CNC(=O)CC1CC(c2ccc(C(=N)N)cc2)=NO1)NC(=O)OCCC1CCCC1 (stereo not drawn),
< 10 µM,COC(=O)C(CNC(=O)CC1CC(c2ccc(C(=N)N)cc2)=NO1)NC(=O)OCc1ccccc1Br (stereo not drawn),
,N=C(N)c1ccc(C2=NOC(CC(=O)NCC(NC(=O)OCc3ccccc3Br)C(=O)O)C2)cc1 (stereo not drawn),< 10 µM
< 10 µM,COC(=O)C(CNC(=O)CC1CC(c2ccc(C(=N)N)cc2)=NO1)NC(=O)OCc1ccccc1Cl (stereo not drawn),
< 10 µM,COC(=O)C(CNC(=O)CC1CC(c2ccc(C(=N)N)cc2)=NO1)NS(=O)(=O)c1ccc(Br)s1 (stereo not drawn),
,CCCCCCOC(=O)NC(CNC(=O)CC1CC(c2ccc(C(=N)N)cc2)=NO1)C(=O)O (stereo not drawn),< 10 µM
,N=C(N)c1ccc(C2=NOC(CC(=O)NCC(NC(=O)OCCC3CC3)C(=O)O)C2)cc1 (stereo not drawn),< 10 µM
,N=C(N)c1ccc(C2=NOC(CC(=O)NC(CC(=O)O)C(=O)NCC34CC5CC(CC(C5)C3)C4)C2)cc1 (stereo not drawn),< 10 µM
< 10 µM,COC(=O)C(CNC(=O)CC1CC(c2ccc(C(=N)N)cc2)=NO1)NS(=O)(=O)c1cc(C)c(Cl)cc1C (stereo not drawn),
< 10 µM,COC(=O)[C@H](CNC(=O)CC1CC(c2ccc(C(=N)N)cc2)=NO1)NS(=O)(=O)c1ccc2ccccc2c1 (stereo partly drawn),
,"N=C(N)c1ccc(C2=NOC(CC(=O)NC(CCCc3ccccc3)CC(=O)O)C2)cc1 (single isomer, unassigned)",< 10 µM
< 10 µM,COC(=O)CC(NC(=O)CC1CC(c2ccc(C(=N)N)cc2)=NO1)C(=O)N1CCN(Cc2ccccc2)CC1 (stereo not drawn),
< 10 µM,COC(=O)C(CNC(=O)CC1CC(c2ccc(C(=N)N)cc2)=NO1)NS(=O)(=O)c1ccc(-c2ccon2)s1 (stereo not drawn),
< 10 µM,COC(=O)C(CNC(=O)CC1CC(c2ccc(C(=N)N)cc2)=NO1)NS(=O)(=O)c1c(C)nn(C)c1Cl (stereo not drawn),
< 10 µM,COC(=O)[C@H](CNC(=O)CC1CC(c2ccc(C(=N)N)cc2)=NO1)NS(=O)(=O)C=Cc1ccccc1 (stereo partly drawn),
< 10 µM,COC(=O)C(CNC(=O)CC1CC(c2ccc(C(=N)N)cc2)=NO1)NS(=O)(=O)c1sc2ccccc2c1C (stereo not drawn),
< 10 µM,COC(=O)[C@H](CNC(=O)CC1CC(c2ccc(C(=N)N)cc2)=NO1)NS(=O)(=O)c1cccc2ccccc12 (stereo partly drawn),

IC50 [2],SMILES,IC50 [1]
< 10 µM,COC(=O)C(CNC(=O)CC1CC(c2ccc(C(=N)N)cc2)=NO1)NS(=O)(=O)c1ccc(-c2ccccn2)s1 (stereo not drawn),
,CC(C)COC(=O)NC(CNC(=O)CC1CC(c2ccc(C(=N)N)cc2)=NO1)C(=O)O (stereo not drawn),< 10 µM
< 10 µM,COC(=O)C(CNC(=O)CC1CC(c2ccc(C(=N)N)cc2)=NO1)NS(=O)(=O)c1ccc(Br)cc1 (stereo not drawn),
< 10 µM,CCCCOC(=O)NC(CNC(=O)CC1CC(c2ccc(C(=N)N)cc2F)=NO1)C(=O)OC (stereo not drawn),
10 to 50 µM,CCOC(=O)CC(CCCC(C)C)NC(=O)CC1CC(c2ccc(C(=N)N)cc2)=NO1 (stereo not drawn),
,N=C(N)c1ccc(C2=NOC(CC(=O)NCC(NC(=O)OCCCC(F)(F)F)C(=O)O)C2)cc1 (stereo not drawn),< 10 µM
< 10 µM,COC(=O)C(CNC(=O)CC1CC(c2ccc(C(=N)N)cc2)=NO1)NC(=O)c1ccc2ccccc2c1 (stereo not drawn),
,CCCCOC(=O)NC(CNC(=O)CC1CC(CCCC2CCNCC2)=NO1)C(=O)OC (stereo not drawn),< 10 µM
< 10 µM,COC(=O)C(CNC(=O)CC1CC(c2ccc(C(=N)N)cc2)=NO1)NC(=O)OCCC1CC1 (stereo not drawn),
< 10 µM,COC(=O)CC(NC(=O)CC1CC(c2ccc(C(=N)NC(=O)OC(C)(C)C)cc2)=NO1)C(=O)N1CCN(Cc2ccccc2)CC1 (stereo not drawn),
< 10 µM,COC(=O)C(CNC(=O)CC1CC(c2ccc(C(=N)N)cc2)=NO1)NS(=O)(=O)c1ccc(-c2cc(C(F)(F)F)n(C)n2)s1 (stereo not drawn),
< 10 µM,COC(=O)CC(NC(=O)CC1CC(c2ccc(C(=N)N)cc2)=NO1)C(=O)N(C)CCc1ccccc1 (stereo not drawn),
< 10 µM,"COC(=O)CC(CCc1cccnc1)NC(=O)CC1CC(c2ccc(C(=N)N)cc2)=NO1 (single isomer, unassigned)",
,N=C(N)c1ccc(C2=NOC(CC(=O)NCC(NC(=O)OCCC3CCCC3)C(=O)O)C2)cc1 (stereo not drawn),< 10 µM
< 10 µM,CCOC(=O)CC(NC(=O)CC1CC(c2ccc(C(=N)N)cc2)=NO1)C(=O)NCC12CC3CC(CC(C3)C1)C2 (stereo not drawn),
< 10 µM,COC(=O)C(CNC(=O)CC1CC(c2ccc(C(=N)N)cc2)=NO1)NC(=O)OCC(C)C (stereo not drawn),
< 10 µM,COC(=O)CC(CN1CCCC1)NC(=O)CC1CC(c2ccc(C(=N)N)cc2)=NO1 (stereo not drawn),
< 10 µM,COC(=O)C(CNC(=O)CC1CC(c2ccc(C(=N)N)cc2)=NO1)NC(=O)NCc1ccccc1 (stereo not drawn),
< 10 µM,COC(=O)C(CNC(=O)CC1CC(c2ccc(C(=N)N)cc2)=NO1)NS(=O)(=O)c1cc2ccccc2s1 (stereo not drawn),
< 10 µM,CCOC(=O)C[C@@H](CC(C)C)NC(=O)CC1CC(c2ccc(C(=N)N)cc2)=NO1 (stereo partly drawn),
< 10 µM,COC(=O)C(CNC(=O)CC1CC(c2ccc(C(=N)N)cc2)=NO1)NS(=O)(=O)c1ccccc1C (stereo not drawn),

IC50 [2],SMILES,IC50 [1]
< 10 µM,COC(=O)CC(NC(=O)CC1CC(c2ccc(C(=N)N)cc2)=NO1)C(=O)N1CCCc2ccccc21 (stereo not drawn),
< 10 µM,COC(=O)C[C@@H](CC(C)C)NC(=O)CC1CC(c2ccc(C(=N)N)cc2)=NO1 (stereo partly drawn),
< 10 µM,"COC(=O)CC(CN(C)C)NC(=O)CC1CC(c2ccc(C(=N)N)cc2)=NO1 (single isomer, unassigned)",
< 10 µM,COC(=O)CC(NC(=O)CC1CC(c2ccc(C(=N)N)cc2)=NO1)C(=O)NC12CC3CC(CC(C3)C1)C2 (stereo not drawn),
< 10 µM,"COC(=O)[C@H](CNC(=O)CC1CC(c2ccc(C(=N)N)cc2)=NO1)NS(=O)(=O)c1cccc(C)c1 (single isomer, unassigned)",
< 10 µM,COC(=O)C(CNC(=O)CC1CC(c2ccc(C(=N)N)cc2)=NO1)NC(=O)OCCCC(F)(F)F (stereo not drawn),
< 10 µM,COC(=O)C(CNC(=O)CC1CC(c2ccc(C(=N)N)cc2)=NO1)NS(=O)(=O)c1sc(NC(C)=O)nc1C (stereo not drawn),
< 10 µM,CCCS(=O)(=O)NC(CNC(=O)CC1CC(c2ccc(C(=N)N)cc2)=NO1)C(=O)OC (stereo not drawn),
< 10 µM,COC(=O)CC(NC(=O)CC1CC(c2ccc(C(=N)N)cc2)=NO1)C(=O)N1CCc2ccccc2C1 (stereo not drawn),
,Cc1cccc(S(=O)(=O)N[C@@H](CNC(=O)CC2CC(c3ccc(C(=N)N)cc3)=NO2)C(=O)O)c1 (stereo partly drawn),< 10 µM
< 10 µM,COC(=O)C(CNC(=O)CC1CC(c2ccc(C(=N)N)cc2)=NO1)NS(=O)(=O)c1ccccc1Br (stereo not drawn),
< 10 µM,COC(=O)C(CNC(=O)CC1CC(c2ccc(C(=N)N)cc2)=NO1)NS(=O)(=O)c1cccc(Cl)c1Cl (stereo not drawn),
< 10 µM,CCc1ccc(C(=O)NC(CNC(=O)CC2CC(c3ccc(C(=N)N)cc3)=NO2)C(=O)OC)cc1 (stereo not drawn),
< 10 µM,CCCCCCOC(=O)NC(CNC(=O)CC1CC(c2ccc(C(=N)N)cc2)=NO1)C(=O)OC (stereo not drawn),
< 10 µM,COC(=O)CC(NC(=O)CC1CC(c2ccc(C(=N)N)cc2)=NO1)C(=O)NC1C2CC3CC(C2)CC1C3 (stereo not drawn),
< 10 µM,COC(=O)CC(CCCc1ccccc1)NC(=O)CC1CC(c2ccc(C(=N)N)cc2)=NO1 (stereo not drawn),
< 10 µM,COC(=O)C(CNC(=O)CC1CC(c2ccc(C(=N)N)cc2)=NO1)NS(=O)(=O)c1sccc1Br (stereo not drawn),
,COC(=O)C[C@H](NC(=O)CC1CC(c2ccc(C(=N)N)cc2)=NO1)C(=O)NCC12CC3CC(CC(C3)C1)C2 (stereo partly drawn),< 10 µM
< 10 µM,COC(=O)C(CNC(=O)CC1CC(c2ccc(C(=N)N)cc2)=NO1)NS(=O)(=O)c1cccc(Br)c1 (stereo not drawn),
< 10 µM,COC(=O)CC(CNS(=O)(=O)N(C)C)NC(=O)CC1CC(c2ccc(C(=N)N)cc2)=NO1 (stereo not drawn),
< 10 µM,COC(=O)CC(NC(=O)CC1CC(c2ccc(C(=N)N)cc2)=NO1)C(=O)N1CCSCC1 (stereo not drawn),

SMILES,IC50 [2],IC50 [1]
COC(=O)C[C@H](NC(=O)CC1CC(c2ccc(C(=N)N)cc2)=NO1)C(=O)N(C)C (stereo partly drawn),10 to 50 µM,50 to 100 µM
COC(=O)[C@H](CNC(=O)CC1CC(CCC2CCNCC2)=NO1)NC(=O)OCc1ccccc1 (stereo partly drawn),< 10 µM,50 to 100 µM
COC(=O)C[C@H](NC(=O)CC1CC(c2ccc(C(=N)N)cc2)=NO1)C(=O)OC (stereo partly drawn),< 10 µM,50 to 100 µM
